Experimental data published in patent US20220354827A1 (priority 2019, published 2022).

What was measured:
[1] = Mortality after chronic treatment; settings: for mortality after chronic treatment (Log-rank test): IN-DAN, SQ-DAN
[2] = tested on: NMDA mediated elevation of cytosolic Ca2+ concentrations in iPSC from AD patients; test: NMDA mediated elevation of cytosolic Ca2+ (Fura-2/AM); settings: NMDA 500 μM; SAD and FAD cells compared with CON

| Compound | Mortality % ([1]; 5XFAD mice, intranasal, early treatment (In Dan E)) | Mortality % ([1]; 5XFAD mice, intranasal, late treatment (In Dan L)) | Mortality % ([1]; 5XFAD mice, subcutaneous, early treatment (Sub Dan E)) | Mortality % ([1]; 5XFAD mice, subcutaneous, late treatment (Sub Dan L)) | mortality after chronic treatment (Log-rank test) ([1]; 5XFAD, ETG, LTG) | Mortality % ([1]; WT mice, intranasal, early treatment (In Dan E)) | Mortality % ([1]; WT mice, intranasal, late treatment (In Dan L)) | Mortality % ([1]; WT mice, subcutaneous, early treatment (Sub Dan E)) | Mortality % ([1]; WT mice, subcutaneous, late treatment (Sub Dan L)) | mortality after chronic treatment (Log-rank test) ([1]; WT, ETG and LTG) | integrated cytosolic Ca2+ (AUC) [2] |
| --- | --- | --- | --- | --- | --- | --- | --- | --- | --- | --- | --- |
| O=C1CN(/N=C/c2ccc(-c3ccc([N+](=O)[O-])cc3)o2)C(O)=N1 [dantrolene] | (12.5%) | (6.3%) | (14.3%) | (6.7%) | No significant difference | (11.1%) | (0%) | (23.5%) | (0%) | No significant differences | – |
| N-methyl-d-aspartate | – | – | – | – | – | – | – | – | – | – | greater overall exposure |
